Target: 5-HT4 receptor (Cavia porcellus, UniProt O70528)
Test: Guinea pig colonic longitudinal muscle/myenteric plexus
Conditions: isolated tissue, % of primed 5-HT (0.3 μM) maximum

By UniProt entry, the sequences of proteins in these tests, tags left out. Where a name states a change or a piece, a line headed by the entry shows the natural chain unless it says otherwise.
UniProt O70528: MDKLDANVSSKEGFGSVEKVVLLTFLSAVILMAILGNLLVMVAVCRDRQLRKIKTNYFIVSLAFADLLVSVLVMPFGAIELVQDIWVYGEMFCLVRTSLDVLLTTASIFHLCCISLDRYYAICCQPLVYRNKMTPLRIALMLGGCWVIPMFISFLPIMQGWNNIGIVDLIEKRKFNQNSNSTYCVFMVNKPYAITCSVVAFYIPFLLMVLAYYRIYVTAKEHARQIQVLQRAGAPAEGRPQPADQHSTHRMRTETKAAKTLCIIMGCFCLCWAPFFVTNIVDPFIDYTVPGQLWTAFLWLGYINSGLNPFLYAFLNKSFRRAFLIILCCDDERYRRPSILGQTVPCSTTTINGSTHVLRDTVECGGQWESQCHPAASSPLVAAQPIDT

- Guinea pig colonic LMMP contractile activity IA (mean % 5-HT max ± SEM): 81 ± 2 % 5-HT max
- Guinea pig colonic LMMP contractile activity IA (mean % 5-HT max ± SEM) (listed as prucalopride): 81 % 5-HT max
Structure (SMILES): COCCCN1CCC(NC(=O)c2cc(Cl)c(N)c3c2OCC3)CC1 [Prucalopride, prucalopride]

Reference: PMC3108484 (Frontiers in Pharmacology, 2011)
